B1: Optineurin (Homo sapiens), Q96CV9 (parent)
chain: MSHQPLSCLTEKEDSPSESTGNGPPHLAHPNLDTFTPEELLQQMKELLTENHQLKEAMKLNNQAMKGRFEELSAWTEKQKEERQFFEIQSKEAKERLMALSHENEKLKEELGKLKGKSERSSEDPTDDSRLPRAEAEQEKDQLRTQVVRLQAEKADLLGIVSELQLKLNSSGSSEDSFVEIRMAEGEAEGSVKEIKHSPGPTRTVSTGTALSKYRSRSADGAKNYFEHEELTVSQLLLCLREGNQKVERLEVALKEAKERVSDFEKKTSNRSEIETQTEGSTEKENDEEKGPETVGSEVEALNLQVTSLFKELQEAHTKLSEAELMKKRLQEKCQALERKNSAIPSELNEKQELVYTNKKLELQVESMLSEIKMEQAKTEDEKSKLTVLQMTHNKLLQEHNNALKTIEELTRKESEKVDRAVLKELSEKLELAEKALASKQLQMDEMKQTIAKQEEDLETMTILRAQMEVYCSDFHAERAAREKIHEEKEQLALQLAVLLKENDAFEDGGRQSLMEMQSRHGARTSDSDQQAYLVQRGAEDRDWRQQRNIPIHSCPKCGEVLPDIDTLQIHVMDCII
B2: Optineurin (Homo sapiens), Q96CV9 (parent)
chain: B1 chain
partner: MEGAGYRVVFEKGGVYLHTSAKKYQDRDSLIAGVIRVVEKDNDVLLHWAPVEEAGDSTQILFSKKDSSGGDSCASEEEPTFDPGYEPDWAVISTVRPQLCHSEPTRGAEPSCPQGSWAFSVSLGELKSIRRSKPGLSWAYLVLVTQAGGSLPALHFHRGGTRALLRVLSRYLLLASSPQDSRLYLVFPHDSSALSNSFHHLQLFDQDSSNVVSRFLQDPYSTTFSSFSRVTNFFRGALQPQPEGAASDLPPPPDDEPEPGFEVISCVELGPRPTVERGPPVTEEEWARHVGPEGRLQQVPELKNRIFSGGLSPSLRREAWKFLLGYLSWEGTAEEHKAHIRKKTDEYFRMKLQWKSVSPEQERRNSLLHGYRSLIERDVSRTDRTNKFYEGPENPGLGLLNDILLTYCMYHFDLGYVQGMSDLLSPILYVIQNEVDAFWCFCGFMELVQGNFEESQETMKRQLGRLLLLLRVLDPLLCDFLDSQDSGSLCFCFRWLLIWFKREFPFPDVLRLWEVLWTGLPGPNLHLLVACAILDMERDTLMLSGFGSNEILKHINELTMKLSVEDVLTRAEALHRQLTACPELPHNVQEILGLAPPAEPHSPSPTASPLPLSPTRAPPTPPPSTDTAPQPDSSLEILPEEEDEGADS

Variants of: B1
Conditions: with rab8a_human RAB8A

| effect of a mutation on the interaction | Variant |
| --- | --- |
| decreasing interaction | E50K |

Variants of: B1
Conditions: with rab8a_human RAB8A
Remark: another data set of the same source

| effect of a mutation on the interaction | Variant |
| --- | --- |
| disrupting interaction | E50K |

Variants of: B2
Conditions: with tbc17_human TBC1D17, Q9HA65

| effect of a mutation on the interaction | Variant |
| --- | --- |
| increasing interaction | E50K |

From IntAct's records for PubMed 22854040
